# Assays:
# [1] = Formation of ion pair in aqueous phase: solubility / appearance of solutions; format: physicochemical; conditions: after mixing active principle and acylamino acid solutions
# Description: Two aqueous solutions are used. The first contains calcitonin. Due to the fact that the calcitonin is hydrophilic, the solution is clear. […] This second solution has a milky white appearance.
# The obtained complex, calcitonin oleyl methyl glycine, is therefore amphiphilic.
# Two aqueous solutions are used. The first contains lidocaine dispersed in the aqueous solution. […] This second solution has a milky white appearance.
# The obtained complex, lidocaine oleyl glycine, is therefore amphiphilic.
# A solution of NaOH in the quantity required for causing precipitation of all of the polymyxin E by deplacement of the sulphate salt is added to a solution of polymyxin E sulphate. Polymyxin E, also known as colistin, thereby goes back to its non-salified, basic structure. The resulting solution, solution B, is thus an aqueous phase with a precipitate of polymyxin E.
# The polymyxin is thus resolubilized in the form of an amphiphilic complex, polymyxin E linoleyl glycine.
# [2] = Protocol: An in vitro diffusion study is carried out with the aim of testing how well polymyxin E passes through a synthetic membrane. This membrane, of nylon type, is impregnated with lipid substances, in order to simulate diffusion through the intestinal lipid membrane. This study compares the performances of polymyxin E in the form of an ion pairing with an acylamino acid (oleyl methyl glycine) and in sulphate salified form.
# The in vitro permeation study is carried out using Frantz cells. These cells have a donor compartment, in which a formulation containing polymyxin E in ion pair form or a polymyxin E sulphate solution is deposited, and a receptor compartment containing demineralised water. […] The two compartments are separated by the synthetic membrane.
# The measurement of the quantity of polymyxin E which diffuses through the membrane is carried out by UV after: 1 hour, 2.5 hours, 4 hours, 6 hours and finally 7 hours.
# The table below relates to a quantity of polymyxin E which diffused over the period of time; the values shown are cumulative values.
appearance of aqueous solution of the complex after mixing the two solutions [1],diffusion rate through lipid synthetic membrane relative to sulphate-salified form [2],Substance
clear solution having a single phase,,calcitonin oleyl methyl glycine
clear solution having a single phase,,lidocaine oleyl glycine
single clear phase,,polymyxin E linoleyl glycine
,2 times,polymyxin E oleyl methyl glycine [AIP of polymyxin E-oleyl methyl glycine]

# Source: patent US20050069513A1, “Amphiphilic compounds for pharmaceutical or cosmetic use” (Physica S.A.R.L., priority 2001, published 2005)
